Tests used:
[1] = tested on: PDE activity in the UWLV301 cell line; conditions: compared with Ki for purified PDE1C
[2] = tested on: PDE activity in the UWLV304 cell line; conditions: compared with Ki for purified PDE1C
hPDE3B = hPDE3B (Homo sapiens, UniProt Q13370)
hPDE7B = hPDE7B (Homo sapiens, UniProt Q9NP56)
hPDE10A = hPDE10A (Homo sapiens, UniProt Q9Y233)
r-bovine PDE5A = r-bovine PDE5A (Bos taurus, UniProt Q28156); assay: biochemical

By UniProt entry, the sequences of proteins in these tests, tags left out. Where a name states a change or a piece, a line headed by the entry shows the natural chain unless it says otherwise.
UniProt Q13370: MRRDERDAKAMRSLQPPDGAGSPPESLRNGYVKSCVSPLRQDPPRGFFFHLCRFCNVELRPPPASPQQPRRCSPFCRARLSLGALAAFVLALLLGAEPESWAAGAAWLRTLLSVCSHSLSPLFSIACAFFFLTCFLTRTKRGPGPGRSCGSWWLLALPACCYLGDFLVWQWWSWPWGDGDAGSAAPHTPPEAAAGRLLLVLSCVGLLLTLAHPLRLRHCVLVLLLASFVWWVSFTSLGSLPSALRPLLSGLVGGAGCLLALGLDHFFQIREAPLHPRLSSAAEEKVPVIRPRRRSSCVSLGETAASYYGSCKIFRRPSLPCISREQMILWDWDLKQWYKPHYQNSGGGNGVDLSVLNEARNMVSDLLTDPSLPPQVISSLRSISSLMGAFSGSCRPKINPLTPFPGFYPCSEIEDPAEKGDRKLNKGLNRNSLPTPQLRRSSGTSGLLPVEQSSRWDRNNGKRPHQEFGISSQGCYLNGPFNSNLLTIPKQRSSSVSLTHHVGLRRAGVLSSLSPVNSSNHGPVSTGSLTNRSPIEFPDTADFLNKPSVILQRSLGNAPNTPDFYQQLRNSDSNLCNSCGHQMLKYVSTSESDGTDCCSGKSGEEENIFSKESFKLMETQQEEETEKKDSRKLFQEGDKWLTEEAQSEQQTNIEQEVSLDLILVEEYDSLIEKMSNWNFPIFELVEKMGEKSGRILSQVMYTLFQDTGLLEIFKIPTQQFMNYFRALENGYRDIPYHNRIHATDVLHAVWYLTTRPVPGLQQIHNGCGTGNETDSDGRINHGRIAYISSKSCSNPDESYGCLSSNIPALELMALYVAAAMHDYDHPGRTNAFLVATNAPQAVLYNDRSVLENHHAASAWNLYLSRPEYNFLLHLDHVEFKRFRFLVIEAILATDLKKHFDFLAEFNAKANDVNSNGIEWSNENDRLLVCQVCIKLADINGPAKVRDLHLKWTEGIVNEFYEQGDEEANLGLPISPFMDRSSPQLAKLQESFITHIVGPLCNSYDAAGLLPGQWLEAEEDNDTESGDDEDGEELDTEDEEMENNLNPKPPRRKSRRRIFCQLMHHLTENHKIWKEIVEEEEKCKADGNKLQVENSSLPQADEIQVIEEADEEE
UniProt Q9NP56: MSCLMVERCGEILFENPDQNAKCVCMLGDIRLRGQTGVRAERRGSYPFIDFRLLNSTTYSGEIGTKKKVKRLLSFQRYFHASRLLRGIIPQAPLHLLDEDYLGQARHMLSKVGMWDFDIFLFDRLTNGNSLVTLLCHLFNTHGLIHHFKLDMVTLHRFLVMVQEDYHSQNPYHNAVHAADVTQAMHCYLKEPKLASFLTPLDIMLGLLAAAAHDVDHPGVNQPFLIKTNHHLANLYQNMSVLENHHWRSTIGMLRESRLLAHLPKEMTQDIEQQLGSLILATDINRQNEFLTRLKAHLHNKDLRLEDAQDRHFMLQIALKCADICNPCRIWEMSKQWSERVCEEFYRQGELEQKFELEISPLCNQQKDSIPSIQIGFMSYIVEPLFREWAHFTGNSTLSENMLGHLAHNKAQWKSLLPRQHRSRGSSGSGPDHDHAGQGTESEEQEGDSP
UniProt Q9Y233: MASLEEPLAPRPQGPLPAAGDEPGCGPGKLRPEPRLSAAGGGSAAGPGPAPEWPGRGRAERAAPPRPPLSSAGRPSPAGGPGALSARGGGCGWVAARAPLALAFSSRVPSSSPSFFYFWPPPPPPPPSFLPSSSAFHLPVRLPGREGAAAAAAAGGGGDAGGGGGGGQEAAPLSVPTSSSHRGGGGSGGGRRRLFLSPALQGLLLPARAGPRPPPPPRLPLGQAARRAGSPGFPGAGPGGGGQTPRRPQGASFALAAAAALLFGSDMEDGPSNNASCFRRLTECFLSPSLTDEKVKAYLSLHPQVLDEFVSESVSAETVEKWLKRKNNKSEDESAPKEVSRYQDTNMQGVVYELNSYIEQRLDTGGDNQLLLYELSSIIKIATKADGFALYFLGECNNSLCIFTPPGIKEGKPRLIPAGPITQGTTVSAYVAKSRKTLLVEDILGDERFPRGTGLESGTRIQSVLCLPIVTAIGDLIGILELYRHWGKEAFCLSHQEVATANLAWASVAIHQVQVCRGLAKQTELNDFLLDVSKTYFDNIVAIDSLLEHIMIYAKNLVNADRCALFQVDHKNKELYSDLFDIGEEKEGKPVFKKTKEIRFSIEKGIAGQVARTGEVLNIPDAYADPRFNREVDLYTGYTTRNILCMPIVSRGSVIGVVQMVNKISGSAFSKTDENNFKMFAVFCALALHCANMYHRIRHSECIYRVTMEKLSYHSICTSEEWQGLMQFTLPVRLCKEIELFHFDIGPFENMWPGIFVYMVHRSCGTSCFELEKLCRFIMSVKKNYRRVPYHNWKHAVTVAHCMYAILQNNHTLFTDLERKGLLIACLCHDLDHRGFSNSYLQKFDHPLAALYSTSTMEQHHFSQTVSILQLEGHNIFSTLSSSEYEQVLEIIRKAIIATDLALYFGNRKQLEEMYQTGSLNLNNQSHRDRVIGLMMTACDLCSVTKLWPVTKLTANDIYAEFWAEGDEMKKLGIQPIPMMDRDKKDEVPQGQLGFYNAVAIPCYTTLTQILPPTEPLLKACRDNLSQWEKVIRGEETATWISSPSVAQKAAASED

CN1C(=O)c2c(nn(Cc3ccc(-c4cccc(F)n4)cc3)c2Nc2ccccc2)N2C1=N[C@@H]1CCC[C@@H]12 [Compound 1]
IC50 for inhibition of PDE activity [1]: closely matched the Ki value obtained for purified PDE1C | IC50 for inhibition of PDE activity [2]: closely matched the Ki value obtained for purified PDE1C | Ki (hPDE3B): 3100 nM | Ki (hPDE7B): 360 nM | Ki (hPDE10A): 1800 nM | Ki (r-bovine PDE5A): 630 nM

From patent publication US12636287B2, “Organic compounds” (INTRA-CELLULAR THERAPIES, INC., priority 2018, dated 2026)
